The entries are a selection whose mix differs from that of the whole data set. Inconclusive results are not listed. Active and inactive are the calls of the source. Calls follow the shape of the dose curve; as a rule, active = well fitted inhibition curve with a large enough effect; inconclusive = small, poorly fitted or top-dose-only effect, or another doubt; inactive = no such curve, though single readings can be large or run the other way.
Target: 4'-phosphopantetheinyl transferase ffp (Bacillus subtilis) (UniProt Q9F4F7)
Assay: qHTS Assay for Inhibitors of Bacillus subtilis Sfp phosphopantetheinyl transferase (PPTase);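 also: the enzyme is Sfp with the accession as filed and its product quenches rhodamine fluorescence; 0% = enzyme reaction without inhibitor and -100% = no enzyme wells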
Settings: Biochemical Sfp PPTase activity

Structure (SMILES)	largest response in the series, negative = inhibition
COc1ccc2nc(NP(=O)(c3ccccc3)c3ccccc3)sc2c1	inactive: 14.5%
